This is an account of results in PubChem BioAssay AID651664 (NMMLSC, 2012).

Each structure is given as a SMILES string. The list shows a part of the results, in another mix than the full data. The source made the active and inactive calls.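 Rule for the calls: active = inhibition of granule release above a set limit; inactive = the rest.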

The nature of this test: LAMP-1 surface externalization blockers in TALL-104 cells – cell-based, flow cytometry, validation set (AID 651664). The settings on record: TALL-104 LAMP-1 externalization, at 15.2 µM, stronger effect = higher value, stimulated with thapsigargin and PMA.
Consider `COC(=O)c1cc2c(s1)N=C(c1ccccc1)N(C)P2(=O)N1CCOCC1` (configuration not stated), for which the inhibition is inactive: -2.3%.
For `CC1(CBr)Cn2c(nc3ccccc3c2=O)S1` (configuration not stated), the inhibition was inactive: 0.9%.
